Assay results from patent US20240316047A1, “INHIBITORS OF RNA HELICASE DHX9 AND USES THEREOF” (ACCENT THERAPEUTICS, INC., priority 2022, published 2024).
pEC50, pIC50: −log10 of the molar value. Like-named read-outs stand apart in the source and are kept apart here.

Amino acid sequences for entries named in this document (tags omitted).
UniProt Q08211, whole entry: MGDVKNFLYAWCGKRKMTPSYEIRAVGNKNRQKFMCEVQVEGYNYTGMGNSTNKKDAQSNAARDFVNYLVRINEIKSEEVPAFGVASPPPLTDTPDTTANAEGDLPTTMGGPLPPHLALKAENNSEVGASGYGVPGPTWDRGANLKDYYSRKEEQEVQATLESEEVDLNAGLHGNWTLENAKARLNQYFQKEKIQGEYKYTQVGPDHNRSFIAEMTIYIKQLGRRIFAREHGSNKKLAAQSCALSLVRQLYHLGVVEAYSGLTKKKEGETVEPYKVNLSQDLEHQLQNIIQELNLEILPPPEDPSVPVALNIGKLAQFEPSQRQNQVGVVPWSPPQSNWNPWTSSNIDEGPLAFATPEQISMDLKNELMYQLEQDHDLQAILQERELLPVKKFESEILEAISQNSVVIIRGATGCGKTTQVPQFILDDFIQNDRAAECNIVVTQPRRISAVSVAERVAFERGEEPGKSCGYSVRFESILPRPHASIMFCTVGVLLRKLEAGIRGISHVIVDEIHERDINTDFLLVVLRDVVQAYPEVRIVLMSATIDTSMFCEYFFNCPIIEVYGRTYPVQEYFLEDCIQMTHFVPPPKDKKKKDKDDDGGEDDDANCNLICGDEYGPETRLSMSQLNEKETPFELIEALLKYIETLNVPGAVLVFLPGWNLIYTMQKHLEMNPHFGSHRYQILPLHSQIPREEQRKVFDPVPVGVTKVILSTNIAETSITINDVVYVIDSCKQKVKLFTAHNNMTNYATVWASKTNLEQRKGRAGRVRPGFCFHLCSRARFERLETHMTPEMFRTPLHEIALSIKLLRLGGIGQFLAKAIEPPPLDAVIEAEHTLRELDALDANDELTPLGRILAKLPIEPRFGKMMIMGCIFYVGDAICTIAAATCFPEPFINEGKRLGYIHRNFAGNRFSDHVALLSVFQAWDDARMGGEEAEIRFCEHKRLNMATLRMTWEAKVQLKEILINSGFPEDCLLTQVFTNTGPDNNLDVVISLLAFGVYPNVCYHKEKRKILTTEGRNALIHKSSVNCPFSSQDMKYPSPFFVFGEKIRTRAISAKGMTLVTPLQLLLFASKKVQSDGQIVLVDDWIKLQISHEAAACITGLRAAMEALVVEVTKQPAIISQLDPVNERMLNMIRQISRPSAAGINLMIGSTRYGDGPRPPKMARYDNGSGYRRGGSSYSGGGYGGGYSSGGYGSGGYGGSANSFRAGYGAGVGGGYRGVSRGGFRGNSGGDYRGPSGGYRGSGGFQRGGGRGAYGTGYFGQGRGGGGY

How the values were obtained:
[1] = molecular target: Human recombinant DHX9 protein (Homo sapiens (Human), UniProt Q08211); assay: DHX9 ATPase assay (ADP-Glo); assay type: biochemical
[2] = test system: circBRIP1 in HCT116 cells; assay: DHX9 circBRIP1 cellular target engagement SYBR Green assay; assay type: cell-based
[3] = read-out: DHX9 Biochemical Inflection Point
[4] = DHX9 Biochemical Inflection Point

Molecule	DHX9 Biochemical Max Inhibition [1] [%]	pIC50 [1, 3]	pIC50 [1, 4]	pEC50 [2]
Cc1cc(C(=O)Nc2cc(Cl)cc(NS(C)(=O)=O)c2)cn1-c1ncccc1OCc1cncc(F)c1 [Example 175, N-(3-chloro-5-(methylsulfonamido)phenyl)-1-(3-((5-fluoropyridin-3-yl)methoxy)pyridin-2-yl)-5-methyl-1H-pyrrole-3-carboxamide]	78.8	8.44		
CS(=O)(=O)Nc1cc(Br)cc(NC(=O)c2cn(-c3ccccc3)c(=O)[nH]2)c1 [Example 101, N-(3-bromo-5-(methylsulfonamido)phenyl)-2-oxo-1-phenyl-2,3-dihydro-1H-imidazole-4-carboxamide]	53.6	4.89		
CS(=O)(=O)Nc1cc(Cl)cc(NC(=O)c2cc(Nc3ccccc3)n[nH]2)c1 [Example 164, N-(3-chloro-5-(methylsulfonamido)phenyl)-3-(phenylamino)-1H-pyrazole-5-carboxamide]	50.5	5.03		
CS(=O)(=O)Nc1cc(Cl)cc(NC(=O)c2cc(C(=O)N3CCNCC3)n(-c3ccccn3)c2)c1 [Example 165, N-(3-chloro-5-(methylsulfonamido)phenyl)-5-(piperazine-1-carbonyl)-1-(pyridin-2-yl)-1H-pyrrole-3-carboxamide]	57.4		7.27	
CS(=O)(=O)Nc1cc(Cl)cc(NC(=O)c2cc(CO)n(-c3ccccn3)c2)c1 [Example 169, N-(3-chloro-5-(methylsulfonamido)phenyl)-5-(hydroxymethyl)-1-(pyridin-2-yl)-1H-pyrrole-3-carboxamide]	67.9	8.06		
CS(=O)(=O)Nc1cc(Cl)cc(NC(=O)c2cccc(-n3ccc(C#N)n3)c2)c1 [Example 100, N-(3-chloro-5-(methylsulfonamido)phenyl)-3-(3-cyano-1H-pyrazol-1-yl)benzamide]	49.9	4.86		
CS(=O)(=O)Nc1cc(Cl)cc(NC(=O)c2cnn([C@H]3CC[C@H](O)CC3)c2)c1 (single isomer, unassigned) [Example 154]	58.9	6.75		
CS(=O)(=O)Nc1cc(Cl)cc(NC(=O)c2cc(-c3ccccn3)ns2)c1 [Example 137, N-(3-chloro-5-(methylsulfonamido)phenyl)-3-(pyridin-2-yl)isothiazole-5-carboxamide]	62.9	7.13		
N-(3-chloro-5-(methylsulfonamido)phenyl)-1-((1s,4s)-4-hydroxycyclohexyl)-1H-pyrazole-4-carboxamide [Example 151]		6.75		< 5.00
CS(=O)(=O)Nc1cc(Br)cc(NC(=O)c2cccs2)c1 [Example 157, N-(3-bromo-5-(methylsulfonamido)phenyl)thiophene-2-carboxamide]	61.7		7.28	
Cc1cc(C(=O)Nc2cc(Cl)cc(NS(C)(=O)=O)c2)cn1-c1ccccn1 [Example 170, N-(3-chloro-5-(methylsulfonamido)phenyl)-5-methyl-1-(pyridin-2-yl)-1H-pyrrole-3-carboxamide]	75.4	8.24		
